# According to patent US4284653A, “Process for handling and processing fish meat” (Nippon Suisan Kabushiki Kaisha, priority 1979, dated 1981):
# Tested on: protease of hake flesh with jellied condition
# Experiment: Inhibition of protease in aqueous extract of hake meat with jellied condition (urea-denatured hemoglobin substrate, Folin method)
# Assay type: biochemical
# Details: aqueous fish meat extract, pH 3, 5 min
# Procedure: North Pacific hake (Merluccius products) on which the sporosa were parasitic was minced and homogenized with two volumes of water. After standing for 2 hours, the homogenate was centrifuged (15,000 xg, 20 minutes) under cooling condition, and the supernatant was dialyzed against tap water for 24 hours. The residual liquid remaining after the dialysis was heated at 50° C. for 20 minutes. The resulting precipitate was removed under cooling by centrifuge (15,000 xg, 30 minutes). The supernatant liquid was designated an aqueous extract of fish meat with jellied condition.
# Separately, 3 ml of Mclvaine buffer solution (pH=3) was added to 1 ml of urea-denatured bovine hemoglobin (at a concentration of 4%) to prepare a substrate solution. 1 ml of a 1:1 mixture of the above obtained extract and a solution of various TPI was added to the above prepared substrate solution. The resulting mixture was incubated at 40° C. for 5 minutes. Thereafter, 5 ml of a 5% trichloroacetic acid was added to the mixture to allow the reaction to stop. […] 1 ml of the filtrate was colorometrically determined at a wave length of 660 mμ by a Folin method.
# The protease inhibition ratio of various proteolytic activity of the TPI is expressed as the […] relative activity with respect to 100 of the activity of an extract prepared by adding water instead of the TPI solution. […]
compound,measurement,value
[K+].[O-][Br+2]([O-])[O-] [potassium bromate],inhibition ratio (%),98.0%
